Results from PubChem BioAssay AID504617 (Sanford-Burnham Center for Chemical Genomics, 2011).
The list shows a part of the results, in another mix than the full data. Active and inactive are the calls of the source.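 The calls were made as follows: active = mean activity change at or below -40%, meaning activation of 40% or more, at 20 µM; inactive = the rest.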

By UniProt entry, the sequences of proteins in these tests, tags left out. Where a name states a change or a piece, a line headed by the entry shows the natural chain unless it says otherwise.
UniProt O14727: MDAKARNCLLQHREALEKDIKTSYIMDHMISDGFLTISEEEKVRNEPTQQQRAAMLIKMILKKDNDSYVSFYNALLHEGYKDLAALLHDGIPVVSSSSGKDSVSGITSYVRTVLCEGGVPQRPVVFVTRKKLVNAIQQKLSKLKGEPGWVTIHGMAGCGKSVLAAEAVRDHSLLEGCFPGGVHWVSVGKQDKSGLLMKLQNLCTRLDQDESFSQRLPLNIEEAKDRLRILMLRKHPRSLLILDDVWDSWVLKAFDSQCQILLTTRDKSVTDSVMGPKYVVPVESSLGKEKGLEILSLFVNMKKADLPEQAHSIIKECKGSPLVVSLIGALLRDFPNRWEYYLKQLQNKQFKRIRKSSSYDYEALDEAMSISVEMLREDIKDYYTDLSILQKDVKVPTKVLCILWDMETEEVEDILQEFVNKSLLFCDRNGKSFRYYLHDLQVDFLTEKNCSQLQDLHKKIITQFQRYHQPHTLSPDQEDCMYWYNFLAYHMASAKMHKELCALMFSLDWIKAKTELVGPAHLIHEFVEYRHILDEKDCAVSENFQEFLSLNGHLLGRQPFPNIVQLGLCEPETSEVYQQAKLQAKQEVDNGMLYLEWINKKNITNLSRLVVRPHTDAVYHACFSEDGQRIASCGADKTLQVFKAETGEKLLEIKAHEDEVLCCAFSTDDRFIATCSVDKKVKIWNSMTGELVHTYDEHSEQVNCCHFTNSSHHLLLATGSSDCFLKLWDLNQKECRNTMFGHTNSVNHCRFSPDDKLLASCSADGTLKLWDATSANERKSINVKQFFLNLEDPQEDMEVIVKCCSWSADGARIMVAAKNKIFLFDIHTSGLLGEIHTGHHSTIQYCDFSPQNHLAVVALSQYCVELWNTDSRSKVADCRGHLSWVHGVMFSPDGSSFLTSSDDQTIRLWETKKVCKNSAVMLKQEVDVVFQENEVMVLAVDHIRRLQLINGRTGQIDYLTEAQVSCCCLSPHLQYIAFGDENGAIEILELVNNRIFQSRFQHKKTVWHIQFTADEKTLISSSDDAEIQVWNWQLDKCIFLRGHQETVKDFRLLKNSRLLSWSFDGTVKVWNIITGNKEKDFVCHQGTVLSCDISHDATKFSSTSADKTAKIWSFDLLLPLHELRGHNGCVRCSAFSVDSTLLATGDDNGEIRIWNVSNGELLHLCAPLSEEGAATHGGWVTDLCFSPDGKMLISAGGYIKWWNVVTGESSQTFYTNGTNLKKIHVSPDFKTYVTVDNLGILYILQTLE

Target: Apoptotic protease-activating factor 1 (Homo sapiens) (UniProt O14727)
Experiment: enhancers of apoptosome-driven caspase-3 activity – biochemical, fluorescence, DEVD-Rh110, 20 µM, confirmation (AID 504617)
Details: reconstituted apoptosome caspase-3 activity, at 20 µM, stronger effect = lower value

O=[As](O)(c1ccc(O)cc1)c1ccccc1O
activity change, negative = activation: inactive: 15.2%
